According to patent publication US20090054504A1 (KNOPP NEUROSCIENCES, INC., priority 2007, published 2009):

Key:
[1] = clinical; settings: human, oral, t½, Fasted, mean ± SD
[2] = clinical; settings: human, oral

CCCN[C@@H]1CCc2nc(N)sc2C1 [RPPX, (6R)-4,5,6,7-tetrahydro-N6-propyl-2,6-benzothiazole-diamine]
half-life ([1]; blood, 50 mg, CL002, 50 mg Q12H (Day 1)): 6.34 ± 1.31 h
half-life ([1]; blood, 50 mg, CL002, 50 mg Q12H (Day 7)): 6.96 ± 1.3 h
half-life ([1]; blood, 100 mg, CL002, 100 mg Q12H (Day 1)): 6.57 ± 0.88 h
half-life ([1]; in vivo, 100 mg, CL002, 100 mg Q12H (Day 7)): 7.88 ± 1.19 h
half-life ([2]; blood, 150 mg): 6.96 ± 0.56 h
half-life ([2]; blood, 300 mg): 6.4 ± 1.73 h
half-life ([2]; in vivo, 50 mg): 6.65 ± 1.07 h
